Experimental data taken from patent US20200138827A1, “SMALL MOLECULE MODULATORS OF HUMAN STING” (Curadev Pharma Limited, priority 2017, published 2020).

The chains behind the UniProt entries cited, without tags or fusion partners.
UniProt Q86WV6, whole entry R71H/G230A/H232R/R293Q: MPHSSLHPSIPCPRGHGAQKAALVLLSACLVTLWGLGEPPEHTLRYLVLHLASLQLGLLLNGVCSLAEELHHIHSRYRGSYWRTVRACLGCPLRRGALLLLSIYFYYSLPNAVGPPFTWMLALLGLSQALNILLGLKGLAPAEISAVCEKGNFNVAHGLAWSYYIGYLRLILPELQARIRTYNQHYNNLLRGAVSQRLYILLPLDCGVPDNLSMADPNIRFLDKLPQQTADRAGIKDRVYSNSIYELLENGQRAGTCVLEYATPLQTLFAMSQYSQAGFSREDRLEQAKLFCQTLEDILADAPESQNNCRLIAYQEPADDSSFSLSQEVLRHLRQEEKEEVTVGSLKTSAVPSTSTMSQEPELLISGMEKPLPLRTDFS
UniProt Q86WV6, whole entry H232R: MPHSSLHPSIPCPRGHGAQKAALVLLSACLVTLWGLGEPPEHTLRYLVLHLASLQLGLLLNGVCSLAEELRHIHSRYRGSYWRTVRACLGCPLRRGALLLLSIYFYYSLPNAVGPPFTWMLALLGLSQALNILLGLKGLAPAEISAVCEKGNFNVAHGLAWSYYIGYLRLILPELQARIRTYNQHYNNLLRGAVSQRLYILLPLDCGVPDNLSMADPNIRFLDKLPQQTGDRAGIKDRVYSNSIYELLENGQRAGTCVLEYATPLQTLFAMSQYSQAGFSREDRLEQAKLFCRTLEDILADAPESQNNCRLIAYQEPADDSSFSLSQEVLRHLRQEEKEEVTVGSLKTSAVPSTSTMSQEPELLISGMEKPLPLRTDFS

Legend:
Format in all cases: cell-based
hSTING(HAQ) = molecular target: T1, hSTING(HAQ) (Homo sapiens, UniProt Q86WV6, G230A/H232R/R293Q/R71H); test: Luciferase reporter assay in HEK293T-hSTING-Luciferase cells, HAQ polymorph; settings: 20 hr stimulation, read-out: HAQ activity (EC50 range)
T1 construct: host or cells: HEK293T

hSTING(H232) = molecular target: T2, hSTING(H232) (Homo sapiens, UniProt Q86WV6); test: Luciferase reporter assay in HEK293T-hSTING-Luciferase cells, H232 polymorph; settings: 20 hr stimulation, read-out: H232 activity (EC50 range)
T2 construct: host or cells: HEK293T

WT/R232 STING protein = molecular target: T3, WT/R232 STING protein (Homo sapiens, UniProt Q86WV6, H232R); test: Luciferase reporter assay in HEK293T-hSTING-Luciferase cells, WT/R232; settings: 20 hr stimulation, read-out: R232 Activity (EC50 range)
T3 construct: host or cells: HEK293T

CC1(CCl)Sc2ccc(C(=O)NCc3ccc(F)cc3F)cc2N(Cc2c(F)cccc2Cl)C1=O (stereo not drawn) [Example 150, 4-(2-chloro-6-fluorobenzyl)-2-(chloromethyl)-N-(2,4-difluorobenzyl)-2-methyl-3-oxo-3,4-dihydro-2H-benzo[b][1,4] thiazine-6-carboxamide] was tested, and the EC50 (hSTING(HAQ)) was 1000 to 10000 nM, the EC50 (hSTING(H232)) was 1000 to 10000 nM and the EC50 (WT/R232 STING protein) was under 1000 nM.
